Laboratory results taken from patent US11136312B2, “3,4,5-trisubstituted-1,2,4-triazoles and 3,4,5-trisubstituted-3-thio-1,2,4-triazoles and uses thereof” (Board of Trustees of Southern Illinois University, priority 2017, dated 2021).
“And” between values parts separate entries of the source, which are not always exact repeats. Equal values may be shown once.

Chains of the proteins cited; added tags and fusions are not shown. Lines headed by an entry give the natural chain unless they say otherwise; changes in a name come on top.
UniProt P31391: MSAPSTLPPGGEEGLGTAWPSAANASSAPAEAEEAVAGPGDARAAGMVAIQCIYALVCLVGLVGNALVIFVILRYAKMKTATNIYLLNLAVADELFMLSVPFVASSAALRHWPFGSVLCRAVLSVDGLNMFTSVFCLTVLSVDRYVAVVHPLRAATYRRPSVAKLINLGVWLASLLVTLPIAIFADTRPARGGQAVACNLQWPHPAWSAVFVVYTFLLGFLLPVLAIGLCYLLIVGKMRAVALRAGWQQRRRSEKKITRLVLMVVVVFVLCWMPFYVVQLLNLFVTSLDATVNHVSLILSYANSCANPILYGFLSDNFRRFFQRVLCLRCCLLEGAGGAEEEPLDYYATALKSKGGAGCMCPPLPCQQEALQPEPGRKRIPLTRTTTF

Assays:
[1] = biological target: human somatostatin receptor SSTR4 (Homo sapiens (Human), UniProt P31391); experiment: Competitive radioligand binding, 125I-Tyr-SRIF 14, membrane preparations; conditions: competitive binding vs 125I-Tyr-SRIF 14, human SSTR4 membranes; read-out: SST4
Description: Respective membrane receptor preparations were prepared in assay buffer (25 mM HEPES, 10 mM MgCl2, 1 mM CaCl2, 0.5% BSA, pH=7.4) at a 1:150 dilution. […] Binding assays were performed in triplicate for each concentration of ligand in a total volume of 200 μL radioligand (25 μL ligand, 25 μL radioligand, 150 μL receptors) and incubated at room temperature for 90 minutes using a shaking table. Binding was terminated by filtration through GF/B glass fiber filters that were presoaked in 0.5% polyethyleneimine for a minimum of 4 hours. Filters were washed 9× with 1000 μL ice cold wash buffer (50 mM Tris-HCl, pH=7.4, 0.2% BSA). Filters were scored, transferred into plastic test tubes and counted in a gamma counter (Wizard2, Perkin-Elmer). Determination of the Ki for each compound was performed using non-linear regression with GraphPad PRISM-5 software (GraphPad Software, Inc., La Jolla, Calif.).

[2] = biological target: CHO-K1 cells expressing human somatostatin SSTR4 (Homo sapiens (Human), UniProt P31391); experiment: Inhibition of forskolin stimulated cAMP, TR-FRET LANCE assay; format: cell-based; conditions: against 5 μM forskolin
Description: Measurement of forskolin stimulated inhibition of cAMP was performed via time-resolved fluorescence resonance energy transfer (TR-FRET) LANCE assay (AD0262, PerkinElmer Life Science, Inc., Boston Mass.). […] LANCE cAMP assay was performed per manufacture instruction with assessment of respective compound, somatostatin-28 (Sigma-Aldrich Co., St. Louis, Mo.) as control agonist, against 5 μM forskolin, performed in triplicate across concentration curve. […] Data was calculated via GraphPad PRISM-5 software.

SMILES	Ki [1]	EC50 [2] [nM]
COc1cccc(Cc2nnc(CCc3c[nH]c4ccccc34)n2CCCc2c[nH]cn2)c1 [BN-VI-61, 3-(2-(4-(3-(1H-Imidazol-4-yl)propyl)-5-(3-methoxybenzyl)-4H-1,2,4-triazol-3-yl)ethyl)-1H-indole]	7.74 nM and 9.32 nM	15.6
c1ccc(COc2cccc(Cc3nnc(CCc4c[nH]c5ccccc45)n3CCCc3c[nH]cn3)c2)cc1 [MM-I-53, 3-(2-(4-(3-(1H-imidazol-4-yl)propyl)-5-(3-(benzyloxy)benzyl)-4H-1,2,4-triazol-3-yl)-ethyl)-1H-indole]	387 nM	254
Cn1cc(CCc2nnc(Cc3ccc(Cl)c(Cl)c3)n2CCCc2c[nH]cn2)c2ccccc21 [SM-I-60, 3-(2-(4-(3-(1H-Imidazol-4-yl)propyl)-5-(3,4-dichlorobenzyl)-4H-1,2,4-triazol-3-yl)ethyl)-1-methyl-1H-indole]	40.4 nM	21.3

These reach a lower EC50 [2]. Values come first.

Ki [1]	EC50 [2] [nM]	SMILES
3.2 nM	6.08	FC(F)(F)c1cccc(Cc2nnc(CCc3c[nH]c4ccccc34)n2CCCc2c[nH]cn2)c1 [BN-VI-97, 3-(2-(4-(3-(1H-Imidazol-4-yl)propyl)-5-(3-(trifluoromethyl)benzyl)-4H-1,2,4-triazol-3-yl)ethyl)-1H-indole]
2.79 nM	6.02	COc1ccc2[nH]cc(Cc3nnc(Cc4ccc(F)cc4)n3CCCc3c[nH]cn3)c2c1 [SK-I-55, 3-((4-(3-(1H-imidazol-4-yl)propyl)-5-(4-fluorobenzyl)-4H-1,2,4-triazol-3-yl)methyl)-5-methoxy-1H-indole]
0.825 nM and 0.838 nM	0.585	FC(F)(F)c1cccc(Cc2nnc(Cc3c[nH]c4ccccc34)n2CCCc2c[nH]cn2)c1 [MM-I-66, 3-((4-(3-(1H-imidazol-4-yl)propyl)-5-(3-(trifluoromethyl)benzyl)-4H-1,2,4-triazol-3-yl)methyl)-1H-indole]
1.04 nM	0.276	Fc1ccc2c(Cc3nnc(Cc4cccc(Br)c4)n3CCCc3c[nH]cn3)c[nH]c2c1 [MM-I-83, 3-((4-(3-(1H-imidazol-4-yl)propyl)-5-(3-bromobenzyl)-4H-1,2,4-triazol-3-yl)methyl)-6-fluoro-1H-indole]
